The list is not random: actives were taken first. Their share in the collection is about 2.1%.
INS-1E GSIS act = GLuc luminescence reporter in INS-1E cells, primary screen for activators of glucose-dependent secretion of insulin | INS-1E GLuc reporter insulin secretion, 2-3 h | activation, % at 16.6 µM | hit rate 0.61% among 370,000 | AID 743287;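 active = lowest replicate activation of at least 40%, so every replicate reaches that level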;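 note: 0% = median of neutral control wells and 100% = median of IBMX positive control wells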
UUG fidelity = modulators of yeast start codon fidelity, primary screen, whole organism, S. cerevisiae, single point, plate reader; S. cerevisiae UUG-firefly luciferase reporter, luminescence/redox ratio; activity score, % at 18.7 µM; actives 0.13% (n = 350,000); AID 602363, 2012;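 active = replicate mean at a twofold rise or more, about +100% in these data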;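 also: firefly luciferase made from a UUG start codon reports start codon fidelity; reporter light over untreated wells divided by growth signal over untreated wells; some hits fall short of that in this replicate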
SMARCA2 activ = SMARCA2 function activation, primary screen. activation, % at 9.1 µM. hit rate 1% among 370,000. MG213 cells, MMTV-luciferase reporter, dexamethasone, overnight. AID 652017; in the data active = activation above about 7.8%;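 note: 0% = vehicle wells and 100% = reference activator wells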
Rev-erbA mod = modulators of human Rev-erb alpha DNA binding. activity, % at 10 µM. hit rate 0.79% among 370,000. AID 1259318. Rev-erbα–FITC-DNA binding, fluorescence polarization, 90 min. P20393;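 active = activity above about 14%, limit read from the data; passing the limit was not always enough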;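 note: 0% = DMSO wells with 35 nM protein and 100% = DMSO wells with 750 nM protein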
ERp5 inh = blocks human ERp5 reductase activity on insulin | Q15084 | ERp5 insulin aggregation, absorbance 650 nm, 90 min | inhibition, % at 9.99 µM | hit rate 0.05% among 350,000;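 active = mean replicate inhibition above about 25%, with every replicate also reaching it, limit read from the data, passing the limit was not always enough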
PDI turbidity = inhibitors of human protein disulfide isomerase | PDI insulin aggregation turbidity, A650, 90 min | inhibition, % at 10 µM | hit rate 0.052% among 350,000 | AID 588391;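 active = mean inhibition across replicates of 30% or more, whatever share of single replicates reach that level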
SMARCA2 act conf = SMARCA2 activation, confirmation screen | shares compounds with SMARCA2 activ | MG213 cells, MMTV-luciferase with dexamethasone, luminescence, overnight; MG213 cells expressing E1A, Rb sequestered; DMSO wells 0%, reference activator 100% | hit rate 30% among 3,500 | activation, % at 9.1 µM | AID 652260;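 active = activation above its plate's cutoff, the mean activation of tested wells plus 3 SD, cut at about 7.9% in these data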
VP16 Luc act = counter-screen for SMARCA2 activators: GAL4-VP16 luciferase reporter activation | hit rate 41% among 3,500 | activation, % at 9.1 µM | AID 686939 | HEK293 GAL4-VP16 pG5luc reporter, luciferase luminescence; scaled: DMSO wells 0%, SAHA wells 100% | shares compounds with SMARCA2 activ;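 active = activation above the solvent-only control well mean plus 3 SD, averaged across control plates, cut at about 5.2% in these data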
An asterisk follows results filed as active; nt = no result given.

Letter code – A = INS-1E GSIS act; B = UUG fidelity; C = SMARCA2 activ; D = Rev-erbA mod; E = ERp5 inh; F = PDI turbidity; G = SMARCA2 act conf; H = VP16 Luc act
CC(=O)N1CCn2c3c(c4cc(C)ccc42)CCCC31 (stereo not drawn)
  A: -10.2	B: 1.4	C: 8.7*	D: 3.7	E: -9.3	F: 6.6	G: -3.8	H: 0.2
N/C(=N\N=C\c1ccc([N+](=O)[O-])cc1)c1nonc1N
  A: -0.1	B: -21.0	C: 14.5*	D: 0.7	E: -2.8	F: -4.1	G: 3.5	H: 9.1*
Cc1cccc2nc(=S)n(C(=O)c3ccco3)n12
  A: 24.9	B: -7.0	C: 8.6*	D: -2.2	E: nt	F: -10.3	G: 7.4	H: 13.6*
O=C(NCCN1CCCC1)c1ccc2c(=O)n(CCc3ccccc3)c(=O)[nH]c2c1
  A: nt	B: -8.8	C: 8.2*	D: -2.2	E: nt	F: -6.2	G: 10.5*	H: 1.3
CCCN1CCN(CCCNC(=O)c2ccc3c(=O)n(CCc4ccccc4)c(=O)[nH]c3c2)CC1
  A: 2.7	B: 1.5	C: -0.9	D: -1.7	E: 1.8	F: 9.4	G: nt	H: nt
CCC(C)(C)C1CCC(=NNC(=S)Nc2ccccc2)CC1 (stereo not drawn)
  A: -30.1	B: -17.4	C: 8.9*	D: -11.5	E: 1.8	F: 1.1	G: -0.2	H: 1.5
CCOc1ccc(C(C)=O)cc1CN1C(=O)NC2(CCCCCC2)C1=O
  A: 1.8	B: 2.1	C: -3.7	D: -2.9	E: 4.0	F: 9.6	G: nt	H: nt
COc1ccc(C(C)=O)cc1CN1C(=O)NC2(CCCCCCC2)C1=O
  A: 1.5	B: -8.0	C: 11.5*	D: -4.2	E: 0.3	F: -1.4	G: -3.8	H: 0.9
CCCN1[C@@H]2c3ccc(-c4ccc(F)cc4)c(=O)n3C[C@H]1[C@H](CO)[C@H]2C(=O)NCC
  A: 8.1	B: nt	C: nt	D: nt	E: 2.2	F: nt	G: nt	H: nt
COc1ccc(C(C#N)N2N=C(c3ccccc3)CC2c2ccccc2)cc1OC (stereo not drawn)
  A: -30.8	B: nt	C: 13.4*	D: 5.3	E: nt	F: -4.6	G: 6.7	H: 4.4
O=C(Nc1ccc(F)cc1)N1CC(=O)N2[C@@H](CO)[C@@H](c3ccc(C#Cc4ccc(F)cc4)cc3)[C@@H]2C1
  A: -32.5	B: nt	C: nt	D: nt	E: -1.7	F: nt	G: nt	H: nt
O=C(Nc1ccccc1Cl)c1ccccc1
  A: 4.7	B: nt	C: 8.8*	D: -2.4	E: 4.7	F: -10.7	G: 2.1	H: 5.6*
O=C(Nc1ccccc1Cl)c1ccn[nH]1
  A: nt	B: -14.5	C: 8.2*	D: -8.8	E: nt	F: -1.6	G: 3.0	H: 1.6
O=C(Nc1ccccc1F)c1ccn[nH]1
  A: 2.0	B: nt	C: 1.6	D: -3.8	E: 4.2	F: 9.3	G: nt	H: nt
CCCNC(=O)C[C@@H]1CC[C@H]2[C@@H](COC[C@@H](O)CN2CC2CCCCC2)O1
  A: -1.4	B: nt	C: nt	D: nt	E: -1.2	F: nt	G: nt	H: nt

Reformatted: results already given
Results follow in this order: INS-1E GSIS act, UUG fidelity, SMARCA2 activ, Rev-erbA mod, ERp5 inh, PDI turbidity, SMARCA2 act conf, VP16 Luc act
Cc1cccc2nc(=S)n(C(=O)c3ccco3)n12
    24.9, -7.0, 8.6*, -2.2, nt, -10.3, 7.4, 13.6*
O=C(NCCN1CCCC1)c1ccc2c(=O)n(CCc3ccccc3)c(=O)[nH]c2c1
    nt, -8.8, 8.2*, -2.2, nt, -6.2, 10.5*, 1.3
CCCN1CCN(CCCNC(=O)c2ccc3c(=O)n(CCc4ccccc4)c(=O)[nH]c3c2)CC1
    2.7, 1.5, -0.9, -1.7, 1.8, 9.4, nt, nt
CCC(C)(C)C1CCC(=NNC(=S)Nc2ccccc2)CC1 (stereo not drawn)
    -30.1, -17.4, 8.9*, -11.5, 1.8, 1.1, -0.2, 1.5

(cont.)
Letter code – A = INS-1E GSIS act; B = UUG fidelity; C = SMARCA2 activ; D = Rev-erbA mod; E = ERp5 inh; F = PDI turbidity; G = SMARCA2 act conf; H = VP16 Luc act
C[C@@H]1CCCCO[C@@H](CN(C)C(=O)Nc2ccc(F)cc2)[C@H](C)CN([C@@H](C)CO)C(=O)c2cc(NC(=O)C3CCCCC3)ccc2O1
  A: -14.1	B: -9.4	C: nt	D: nt	E: 0.0	F: nt	G: nt	H: nt
O=C(Cc1cccs1)NCc1cccs1
  A: 22.9	B: 1.7	C: nt	D: -3.8	E: -5.0	F: 2.7	G: nt	H: nt
O=C(Cc1cccs1)Nc1ccc(NC(=O)c2ccco2)cc1
  A: nt	B: -15.6	C: 11.8*	D: 4.3	E: nt	F: -0.2	G: 6.4	H: 7.9*
O=C(Cc1cccs1)NCc1cccc(Br)c1
  A: -2.0	B: -18.2	C: 9.2*	D: 0.3	E: -0.8	F: 4.0	G: 4.5	H: 7.8*
Cn1cccc1C(=O)OCc1ccc(C(C)(C)C)cc1
  A: -10.4	B: 6.4	C: 11.2*	D: 6.8	E: -0.1	F: 1.7	G: 6.6	H: 6.4*
Cn1cccc1C(=O)OCc1cc(-c2ccco2)on1
  A: -8.5	B: 5.7	C: 8.4*	D: 2.3	E: -8.9	F: -7.0	G: 3.9	H: 5.4*
O=C(N[C@H]1CC[C@H](CCn2cc(Cc3ccccc3)nn2)O[C@@H]1CO)c1ccccn1
  A: -11.2	B: -18.5	C: nt	D: nt	E: -1.9	F: nt	G: nt	H: nt
CCNC(=O)CSc1nnc(-c2cccc(S(=O)(=O)N(CC)CC)c2)n1CCc1ccccc1
  A: -1.7	B: 7.4	C: 8.9*	D: -0.8	E: 1.4	F: 4.2	G: -4.1	H: 0.5
CSc1ccccc1NC(=O)c1cc(C)on1
  A: nt	B: -19.1	C: 0.5	D: -5.2	E: nt	F: 2.3	G: nt	H: nt
O=C(Nc1cc(Br)ccc1O)c1cc(-c2ccc3c(c2)OCO3)on1
  A: 1.7	B: 0.6	C: 4.2	D: -2.5	E: 4.3	F: -3.9	G: nt	H: nt
CSc1ccccc1NC(=O)c1cc(C(C)C)on1
  A: -2.7	B: -20.4	C: 8.0*	D: -3.0	E: nt	F: 2.5	G: 3.2	H: 7.9*
CSc1ccccc1NC(=O)c1cc(-c2ccc3c(c2)OCO3)on1
  A: -2.9	B: -21.7	C: 10.4*	D: 13.1	E: 1.4	F: -14.8	G: 5.7	H: 1.8
CO[C@@H]1CN(C)C(=O)c2cc(NS(=O)(=O)c3ccc(Oc4ccccc4)cc3)ccc2OC[C@@H](C)NC[C@@H]1C
  A: 2.0	B: 2.8	C: nt	D: nt	E: 0.7	F: nt	G: nt	H: nt
COCC(=O)N(C)C[C@@H]1Oc2cc(-c3ccccc3F)ccc2S(=O)(=O)N([C@H](C)CO)C[C@@H]1C
  A: 22.8	B: nt	C: nt	D: nt	E: 5.0	F: nt	G: nt	H: nt
COc1ccc(CNC(=O)C[C@@H]2CC[C@H]3[C@@H](COc4ccc(NC(C)=O)cc4C(=O)N3C)O2)cc1
  A: 24.6	B: -12.0	C: nt	D: nt	E: 1.8	F: nt	G: nt	H: nt

Next section.
| smiles | INS-1E GSIS act | UUG fidelity | SMARCA2 activ | Rev-erbA mod | ERp5 inh | PDI turbidity | SMARCA2 act conf | VP16 Luc act |
| --- | --- | --- | --- | --- | --- | --- | --- | --- |
| CCCn1cnc2c(SCc3ccccn3)nc(N)nc21 | nt | -20.9 | 3.5 | 5.8 | 1.0 | 15.2 | nt | nt |
| Nc1nc(SCc2ccccn2)c2ncn(C3CCCC3)c2n1 | 36.7 | -12.2 | 8.2* | -8.4 | 3.6 | -8.0 | 5.5 | 4.2 |
| Cc1ccsc1/C=C/c1ccc2cccc(O)c2n1 | nt | -41.7 | 13.0* | 12.7 | nt | -2.0 | -9.5 | 19.1* |
| COc1cc(Br)c(/C=C/c2ccc3cccc(O)c3n2)cc1OC | 5.5 | -22.0 | -0.9 | 0.7 | 3.4 | 11.3 | nt | nt |
| COc1ccc(OC)c(/C=C/c2ccc3cccc(O)c3n2)c1 | -10.8 | nt | 9.1* | 3.9 | 1.7 | 2.4 | -16.0 | 13.3* |
| Oc1cccc2ccc(/C=C/c3cccs3)nc12 | -17.9 | -52.5 | 12.9* | -0.8 | nt | 3.5 | -1.9 | 22.5* |
| CN1CCN(C(=O)C[C@H]2CC[C@@H]3[C@H](COC[C@@H](O)CN3C(=O)Nc3cc(Cl)cc(Cl)c3)O2)CC1 | -5.5 | 1.3 | nt | nt | 1.6 | nt | nt | nt |
| O=C(NC1CCC1)c1ccc(C#CC2CC2)c[n+]1[O-] | nt | nt | 15.0* | 0.0 | nt | nt | 11.3* | 5.2* |
| CS(=O)(=O)c1ccc(C(=O)NC2CCCCC2)cc1 | -0.1 | -9.5 | -1.9 | -5.0 | nt | 4.5 | nt | nt |
| O=C(NCCCN1CCCC1)c1ccc(CS(=O)(=O)c2ccc(Br)cc2)o1 | 8.1 | 0.7 | 9.5* | -3.6 | 3.7 | nt | -1.3 | 1.4 |
| Cc1ccccc1S(=O)Cc1ccc(C(=O)NCCCN2CCCCC2)o1 (stereo not drawn) | 5.1 | -14.1 | 11.7* | 1.3 | -6.8 | -7.7 | -6.0 | -0.4 |
| Cc1ccccc1S(=O)Cc1ccc(C(=O)NCCN2CCOCC2)o1 (stereo not drawn) | 24.2 | -7.7 | -2.6 | -0.8 | -4.0 | 1.9 | nt | nt |
| C[C@H](CO)N1C[C@H](C)[C@@H](CN(C)S(=O)(=O)c2cn(C)cn2)OCCCC[C@H](C)Oc2ccc(NS(=O)(=O)c3ccccc3)cc2C1=O | 3.6 | 1.0 | nt | nt | -2.1 | nt | nt | nt |
| C[C@@H]1CCCCO[C@H](CN(C)Cc2ccccc2)[C@@H](C)CN([C@@H](C)CO)C(=O)c2cc(NS(C)(=O)=O)ccc2O1 | 2.8 | 2.6 | nt | nt | -2.5 | nt | nt | nt |

Assay outcomes: PubChem, several laboratories
